# Patent US6875761B2 (Eisai Co., Ltd., priority 1997, dated 2005)
# By UniProt entry, the sequences of proteins in these tests, tags left out.
# UniProt P19327, whole entry: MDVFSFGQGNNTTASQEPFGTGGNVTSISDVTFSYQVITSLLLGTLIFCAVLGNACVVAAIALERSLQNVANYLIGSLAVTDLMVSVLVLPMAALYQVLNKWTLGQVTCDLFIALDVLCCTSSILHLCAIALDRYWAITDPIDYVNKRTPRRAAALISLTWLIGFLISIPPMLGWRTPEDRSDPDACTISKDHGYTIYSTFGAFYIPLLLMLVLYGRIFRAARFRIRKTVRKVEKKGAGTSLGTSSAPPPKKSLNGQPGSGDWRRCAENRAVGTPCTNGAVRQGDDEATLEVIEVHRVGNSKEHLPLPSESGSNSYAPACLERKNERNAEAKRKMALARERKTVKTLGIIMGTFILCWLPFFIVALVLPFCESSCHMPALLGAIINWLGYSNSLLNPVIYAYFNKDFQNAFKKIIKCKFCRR
# UniProt P14842, whole entry: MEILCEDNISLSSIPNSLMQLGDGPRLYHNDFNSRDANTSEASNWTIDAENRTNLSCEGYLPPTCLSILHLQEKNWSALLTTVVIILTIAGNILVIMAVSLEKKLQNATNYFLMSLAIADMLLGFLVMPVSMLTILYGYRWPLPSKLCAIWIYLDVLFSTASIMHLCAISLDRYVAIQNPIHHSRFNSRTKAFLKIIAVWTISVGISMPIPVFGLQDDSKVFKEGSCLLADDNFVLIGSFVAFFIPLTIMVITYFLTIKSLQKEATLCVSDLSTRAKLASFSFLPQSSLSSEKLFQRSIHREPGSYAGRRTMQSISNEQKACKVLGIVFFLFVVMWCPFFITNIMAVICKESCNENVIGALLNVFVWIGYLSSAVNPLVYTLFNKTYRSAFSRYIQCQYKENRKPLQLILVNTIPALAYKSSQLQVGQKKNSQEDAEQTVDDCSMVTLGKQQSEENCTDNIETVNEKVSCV
# Assays:
# [1] = target: serotonin 1A receptor (Rattus norvegicus, UniProt P19327); assay: Binding test on [3H] 8-hydroxy-dipropylaminotetralin, hippocampus receptor fraction
# [2] = target: serotonin 2 receptor (Rattus norvegicus, UniProt P14842); assay: Binding test on [3H] ketanserin, cerebral cortex receptor fraction; design: species or system SD rats
SMILES,"Ki ([1]; read-out: 5HT1, 0.5 nM [3H] 8-OH-DPAT, room temperature 30 min, tested form: HCl)","Ki ([2]; read-out: 5HT2, 0.3 nM [3H] ketanserin, 37° C. 15 min, tested form: HCl)","Ki ([1]; read-out: 5HT1, 0.5 nM [3H] 8-OH-DPAT, room temperature 30 min, tested form: oxalate)","Ki ([2]; read-out: 5HT2, 0.3 nM [3H] ketanserin, 37° C. 15 min, tested form: oxalate)"
CCN1CCN(c2nc(-c3ccc(OCCc4ccc(C)nc4)cc3)cc3ccccc23)CC1,23.3 nM,18.7 nM,,
"CCN1CCN(c2nc(/C=C/c3ccc(N4CCOCC4)nc3)cc3ccccc23)CC1 [Example 200, 3-[(E)-2-[2-(4-Morpholinyl)Pyridin-5-Yl]Ethenyl]-1-(4-Ethylpiperazin-1-Yl)Isoquinoline Hydrochloride]",,,21.1 nM,31.8 nM

# Structures can show the parent of a compound that is named as a salt. Where two headings read alike, the source gives them in different places.
